The assay deals with T1, HCV polymerase (Hepatitis C virus genotype 1b, UniProt P26663).
T1 construct: a region encoding NS5B (591 amino acids; J Virol 1991 Mar, 65(3), 1105-13) was amplified by PCR; 6 His (N); made in house; host or cells: Escherichia coli
The assay is described as follows: biochemical. Particulars: read-out: HCV polymerase inhibitory activity IC50. An excerpt: The evaluation of the HCV polymerase inhibitory activity of the compound of the present invention is explained in the following. This polymerase is an enzyme coded for by the non-structural protein region called NS5B on the RNA gene of HCV (EMBO J., 15:12-22, 1996).
i) Preparation of enzyme (HCV polymerase)
Using, as a template, a cDNA clone corresponding to the full length RNA gene of HCV BK strain obtained from the blood of a patient with hepatitis C, a region encoding NS5B (591 amino acids; J Virol 1991 Mar, 65(3), 1105-13) was amplified by PCR. The objective gene was prepared by adding a 6 His tag {base pair encoding 6 continuous histidine (His)} to the 5′ end thereof and transformed to Escherichia coli. The Escherichia coli capable of producing the objective protein was cultured. The obtained cells were suspended in a buffer solution containing a surfactant and crushed in a microfluidizer. […]
10% Trichloroacetic acid at 4° C. and 1% sodium pyrophosphate solution (150 μl) were added to this reaction mixture to stop the reaction. […] A liquid scintillation cocktail (Packard) was added and the radioactivity of RNA synthesized by the enzyme reaction was measured on a liquid scintillation counter.
The HCV polymerase inhibitory activity (IC50) of the compound of the present invention was calculated from the values of radioactivity of the enzyme reaction with and without the test substance. […]

The chains behind the UniProt entries cited, without tags or fusion partners. Residues count along the entry.
UniProt P26663, 2420-3010: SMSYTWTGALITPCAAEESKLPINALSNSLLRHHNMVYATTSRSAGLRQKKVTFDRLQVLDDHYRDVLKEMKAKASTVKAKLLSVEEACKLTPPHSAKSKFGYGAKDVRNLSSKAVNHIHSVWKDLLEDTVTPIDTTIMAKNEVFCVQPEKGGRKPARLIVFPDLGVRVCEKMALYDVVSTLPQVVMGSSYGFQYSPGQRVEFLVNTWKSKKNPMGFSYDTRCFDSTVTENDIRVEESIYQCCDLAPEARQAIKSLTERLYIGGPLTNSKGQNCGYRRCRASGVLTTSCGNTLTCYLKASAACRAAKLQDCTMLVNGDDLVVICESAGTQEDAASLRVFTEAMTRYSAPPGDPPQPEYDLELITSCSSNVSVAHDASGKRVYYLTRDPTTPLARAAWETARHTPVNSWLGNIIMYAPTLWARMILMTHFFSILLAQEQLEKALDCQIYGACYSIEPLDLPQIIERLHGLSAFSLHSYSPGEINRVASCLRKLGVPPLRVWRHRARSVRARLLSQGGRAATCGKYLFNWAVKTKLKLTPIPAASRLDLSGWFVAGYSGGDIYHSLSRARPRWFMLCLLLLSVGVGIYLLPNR

Structures can show the parent of a compound that is named as a salt.

For the compound `O=C(O)c1ccc2c(c1)nc(-c1ccc(OC[C@@H]3CCCN3c3ccccc3)cc1)n2C1CCCCC1` [Example 204, 1-cyclohexyl-2-{4-[{(2S)-1-phenyl-2-pyrrolidinyl}methoxy]-phenyl}benzimidazole-5-carboxylic acid hydrochloride], the IC50 is 160 nM.

One may read the IC50 as the midpoint of a concentration-inhibition curve.
